The values that follow are results of earlier work, collected in EP0960886B1, “Peptide T and related peptides in the treatment of inflammation, including multiple sclerosis” (priority 1992, dated 1993).

SMILES strings stand for the structures.

For series [1] the following is noted: in vivo; cited from earlier work.
The conditions of series [2]: exit by diffusion only; cited from earlier work.

Consider `C[C@@H](N)C(=O)N[C@@H](CO)C(=O)N[C@H](C(=O)N[C@H](C(=O)N[C@H](C(=O)N[C@@H](CC(N)=O)C(=O)N[C@@H](Cc1ccc(O)cc1)C(=O)N[C@H](C(N)=O)[C@@H](C)O)[C@@H](C)O)[C@@H](C)O)[C@@H](C)O` [Peptide T, D-Ala-Ser-Thr-Thr-Thr-Asn-Tyr-Thr-NH2], for which, in series [1], the half life was less than 1 h. The “transport from the blood to the brain” value in series [2] is “active, saturable transport system”.
